# Legend:
# [1] = system: cortical neuron cultures from E16 rat embryos; conditions: 72 h
# Experimental: In this evaluation cortical neuron cultures are prepared from E16 rat embryos. […] Neurite outgrowth is determined after a 72 h period by staining cells with a tubulin antibody (TUJ-1) and measuring neurite length with the Cellomics ArrayScan, using the Enhanced Neurite Outgrowth (ENO) algorithm. The data are expressed as total neurite length.
# [2] = system: neuron cultures from E16 rat embryos; conditions: 72 h, neurofilament ELISA
# Experimental: In this evaluation neuron cultures are prepared from E16 rat embryos. […] After a 72 h period, neuronal survival is determined by a neurofilament ELISA.
# The data are expressed as total neurofilament content.
smiles,measurement,setting,value
"CN(C)CCn1cc(S(=O)(=O)c2cccc(F)c2)c2cccnc21 [Test Compound B, N-(2-{3-[(3-fluorophenyl)sulfonyl]-1H-pyrrolo[2,3-b]pyridin-1-yl}ethyl)-N,N-dimethylamine]",lowest concentration providing significant enhancement of total neurite length,[1],10 nM
same,lowest concentration providing significant enhancement of survival,[2],10 nM
